Laboratory results published in ChEMBL document CHEMBL1128245, “Dual-acting thromboxane receptor antagonist/synthase inhibitors: synthesis and biological properties of [2-substituted-4-(3-pyridyl)-1,3-dioxan-5-yl] alkenoic acids” (J Med Chem, 1995).

Experiments:
[1] = biological target: T1, Thromboxane-A synthase (Homo sapiens) (UniProt P24557); assay: Ex vivo thromboxane receptor (TXA2 synthase) inhibitory activity after 24 hr of oral dosing (10 mg/kg) in the dog; format: functional, organism-based; conditions: Canis lupus familiaris
T1 sequence (whole entry): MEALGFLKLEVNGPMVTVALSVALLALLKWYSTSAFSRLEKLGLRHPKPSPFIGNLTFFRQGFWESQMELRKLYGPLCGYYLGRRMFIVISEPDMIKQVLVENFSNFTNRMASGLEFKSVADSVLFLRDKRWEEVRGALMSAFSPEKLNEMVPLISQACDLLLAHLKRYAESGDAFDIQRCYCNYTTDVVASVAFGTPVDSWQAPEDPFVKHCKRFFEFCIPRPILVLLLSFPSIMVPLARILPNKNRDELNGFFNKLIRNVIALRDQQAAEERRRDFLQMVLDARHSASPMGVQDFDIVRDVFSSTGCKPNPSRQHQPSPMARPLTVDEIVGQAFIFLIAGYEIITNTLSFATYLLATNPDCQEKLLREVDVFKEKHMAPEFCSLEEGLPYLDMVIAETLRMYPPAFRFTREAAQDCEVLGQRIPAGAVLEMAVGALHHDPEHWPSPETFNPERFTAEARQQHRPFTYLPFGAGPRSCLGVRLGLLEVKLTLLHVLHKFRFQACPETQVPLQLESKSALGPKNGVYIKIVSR

[2] = biological target: T1, Thromboxane-A synthase (Homo sapiens); assay: Ex vivo thromboxane receptor (TXA2 synthase) inhibitory activity after 24 hr of oral dosing (3 mg/kg) in the dog; format: functional, organism-based; conditions: Canis lupus familiaris

inhibition [1]: 57.1%
inhibition [2]: 46%
Compound: Cc1ccc(OC(C)(C)C2OCC(C/C=C\CCC(=O)O)C(c3cccnc3)O2)c([N+](=O)[O-])c1 (stereo in doubt; 7x)
